From patent US10426815B2, “Prevention and treatment of itch with an MRGPR antagonist” (THE GENERAL HOSPITAL CORPORATION, priority 2015, dated 2019)
“Also recorded” adds a separate entry of the source.

Chains of the proteins cited; added tags and fusions are not shown.
UniProt P25103, whole entry: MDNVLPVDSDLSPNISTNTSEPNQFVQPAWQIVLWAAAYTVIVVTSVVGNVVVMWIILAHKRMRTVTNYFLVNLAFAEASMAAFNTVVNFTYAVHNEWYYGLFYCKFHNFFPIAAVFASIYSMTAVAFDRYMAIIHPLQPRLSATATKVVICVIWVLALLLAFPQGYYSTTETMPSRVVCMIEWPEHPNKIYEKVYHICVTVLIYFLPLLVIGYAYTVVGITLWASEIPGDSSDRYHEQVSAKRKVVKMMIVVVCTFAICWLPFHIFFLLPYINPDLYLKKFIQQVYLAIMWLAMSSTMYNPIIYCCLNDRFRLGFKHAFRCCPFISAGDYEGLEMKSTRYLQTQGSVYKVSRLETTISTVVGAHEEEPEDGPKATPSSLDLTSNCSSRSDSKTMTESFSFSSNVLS

Assays:
[1] = biological target: T1, MrgX2 (human MRGPRX2) (Homo sapiens, UniProt Q96LB1); test: Calcium imaging of cells transfected with the GPCR (Table 1); type: cell-based
T1 construct: expressed in transfected cells; host or cells: HeLa cells, pcDNA3.1(-)
T1 sequence (Q96LB1 1-330): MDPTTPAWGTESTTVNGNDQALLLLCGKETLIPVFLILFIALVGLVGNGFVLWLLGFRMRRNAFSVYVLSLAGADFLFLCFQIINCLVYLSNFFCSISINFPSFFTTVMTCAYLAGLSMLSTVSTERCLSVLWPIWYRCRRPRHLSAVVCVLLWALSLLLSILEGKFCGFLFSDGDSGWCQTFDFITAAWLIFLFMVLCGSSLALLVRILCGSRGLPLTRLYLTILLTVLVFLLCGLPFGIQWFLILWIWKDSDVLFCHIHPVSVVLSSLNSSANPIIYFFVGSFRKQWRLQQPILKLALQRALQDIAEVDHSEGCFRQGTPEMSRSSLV
Protocol: (§1) human MRGPRX2 was isolated by PCR from human genomic DNA using the forward and reverse primers, […] (SEQ. ID. NO: 3) and […] (SEQ. ID. NO: 4), and cloned into pcDNA3.1(−). The mouse MrgprA1 cDNA expression clone was purchased from ORIGENE Technologies. The mouse MrgprB2 coding sequences were PCR-amplified from mouse genomic DNA using the primer pair, […] (SEQ. ID. NO: 5) and […] (SEQ. ID. NO: 6), and cloned into pcDNA3.1 (−).
(§2) 10 μg of expression vector (human MRGPRX2, mouse MrgprA1 or NK1) and 10 μl of LIPOFECTAMINE 2000 transfection reagent were diluted into 0.5 ml of DMEM and separately left at room temperature (RT) for 5 min. They were then mixed and incubated at RT for 20 minutes prior to being added to HeLa cells. HeLa cells were grown to confluence, trypsinized and 1×10^6 cells were pelleted in a 15 ml tube by centrifugation at 1000 rpm for 5 minutes. The DMEM-LIPOFECTAMINE 2000-DNA mixture (1 ml) was then added to the cell pellet, suspended and incubated at RT for 5 minutes. 2 ml of complete DMEM with 10% FBS without antibiotics were added to the tube, mixed by inverting the tube, plated into a 96-well glass bottom plate at 50,000 cells/well, and placed in a 37° C. CO2 incubator for 3 hours. HeLa cells transfected with salmon sperm DNA were plated as a control. The medium was changed after 3 hours and left in the incubator. 24 hours after transfection, the medium in the wells was removed and 100 μl of complete DMEM containing 2 μM of FURA-2 were added to each well and left at room temperature in the dark for 1 hr. Following loading with FURA-2, the medium was removed, washed with PBS and replaced with 90 μl of HEPES-buffered saline (20 mM HEPES, 115 mM NaCl, 5.4 mM KCl, 2 mM CaCl2, 0.8 mM MgCl2, 13.8 mM glucose, pH 7.4).
(§3) Calcium imaging was performed immediately after loading cells with Fura-2, using a ZEISS Axiovert 200M microscope platform equipped with a flipping filter wheel for ratiometric imaging. Axiovision software, version 4.6 was used for calcium image analysis of the cells excited at 340 nm and 380 nm. Agonists were added at 15 seconds after the start of the excitation procedure. […] The software later analyzed all images taken during each excitation period. Ratiometric changes were measured in 10-20 cells in each individual experiment. An average of the fluorescence of the cells in each image was calculated and plotted against time in seconds.
(§4) HeLa cells transfected with human MRGPRX2, mouse MrgprA1 and NK1 cDNAs were subjected to ratiometric imaging as described above with SP at concentrations from 0.1 nM-50 μM. Each of the concentration dependent readings was performed in triplicate. Maximum intensities at each of the dilutions were calculated and plotted against concentration using GraphPad Prism software. […]

[2] = biological target: T2, MrgA1 (mouse MrgprA1) (Mus musculus, UniProt Q91WW5); test: as above; type: cell-based
T2 construct: host or cells: HeLa cells
T2 sequence (Q91WW5 1-304): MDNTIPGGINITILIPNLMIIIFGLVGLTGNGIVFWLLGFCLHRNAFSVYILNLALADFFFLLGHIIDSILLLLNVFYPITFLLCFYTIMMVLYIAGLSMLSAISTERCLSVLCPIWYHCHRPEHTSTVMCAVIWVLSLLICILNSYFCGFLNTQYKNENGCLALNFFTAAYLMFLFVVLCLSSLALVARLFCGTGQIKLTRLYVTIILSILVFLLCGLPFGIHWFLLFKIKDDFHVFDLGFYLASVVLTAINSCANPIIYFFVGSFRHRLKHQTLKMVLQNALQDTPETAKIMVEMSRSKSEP
Protocol: as §1, §2, §3, §4

[3] = biological target: T3, NK1R (NK1) (Homo sapiens, UniProt P25103); test: as above; type: cell-based; details: NPFF 50 μM
T3 construct: host or cells: HeLa cells, pcDNA3.1(-)
Protocol: Human NK1 cDNA was obtained from LIFE Technologies, PCR cloned with Xho I-Hind III ends and cloned into pcDNA3.1(−). Mouse NK2 and NK3 expression-ready vectors were obtained from GENSCRIPT (Piscataway, N.J.). All other Mrgprs (human MRGPRX1, human MRGPRX2, human MRGPRX3, human MRGPRX4, mouse MrgprA2a, mouse MrgprA2b, mouse MrgprA3, mouse MrgprA4, mouse MrgprA9, mouse MrgprA10, mouse MrgprB4 and mouse MrgprB5) were cloned by PCR from genomic DNAs and inserted into pcDNA3.1 (−).
10 μg of expression vector (human MRGPRX2, mouse MrgprA1 or NK1) and 10 μl of LIPOFECTAMINE 2000 transfection reagent were diluted into 0.5 ml of DMEM and separately left at room temperature (RT) for 5 min. They were then mixed and incubated at RT for 20 minutes prior to being added to HeLa cells. HeLa cells were grown to confluence, trypsinized and 1×10^6 cells were pelleted in a 15 ml tube by centrifugation at 1000 rpm for 5 minutes. […]
as §3, with “imaging.” for “imaging. Axiovision software, version 4.6 was used for calcium image analysis of the cells excited at 340 nm and 380 nm. Agonists were added at 15 seconds after the start of the excitation procedure.”, “seconds. […]” for “seconds.”

[4] = biological target: T1, MrgX2 (human MRGPRX2); details: reference 15; cited from earlier work

- potency of SP on hMRGPRX2 relative to NK1R [1]: equal potency
- potency of SP on mMrgprA1 relative to NK1R [2]: equal potency
Substance: SP: inflammatory undecapeptide neuropeptide of the tachykinin family, synthesized by GenScript
- SP activity on Mrgprs, rank order from concentration-effect curves ([1]; FIG. 5c): human MRGPRX2>mouse MrgprA1>mouse MrgprB2
- activation of human MRGPRX2 by the substance (in words) ([1]; NPFF 50 μM, capsaicin 3 μM, SP at nanomolar concentrations): activates; also recorded: specifically activated
- activation of NK1 by the substance (in words) [3]: specifically activated; also recorded: activates
- SP activity on human MRGPRX2 relative to mouse MrgprB2 [4]: 500 times
